Assay results reported in patent publication US20060223837A1 (priority 2005, published 2006).

By UniProt entry, the sequences of proteins in these tests, tags left out.
UniProt Q8NER1, whole entry: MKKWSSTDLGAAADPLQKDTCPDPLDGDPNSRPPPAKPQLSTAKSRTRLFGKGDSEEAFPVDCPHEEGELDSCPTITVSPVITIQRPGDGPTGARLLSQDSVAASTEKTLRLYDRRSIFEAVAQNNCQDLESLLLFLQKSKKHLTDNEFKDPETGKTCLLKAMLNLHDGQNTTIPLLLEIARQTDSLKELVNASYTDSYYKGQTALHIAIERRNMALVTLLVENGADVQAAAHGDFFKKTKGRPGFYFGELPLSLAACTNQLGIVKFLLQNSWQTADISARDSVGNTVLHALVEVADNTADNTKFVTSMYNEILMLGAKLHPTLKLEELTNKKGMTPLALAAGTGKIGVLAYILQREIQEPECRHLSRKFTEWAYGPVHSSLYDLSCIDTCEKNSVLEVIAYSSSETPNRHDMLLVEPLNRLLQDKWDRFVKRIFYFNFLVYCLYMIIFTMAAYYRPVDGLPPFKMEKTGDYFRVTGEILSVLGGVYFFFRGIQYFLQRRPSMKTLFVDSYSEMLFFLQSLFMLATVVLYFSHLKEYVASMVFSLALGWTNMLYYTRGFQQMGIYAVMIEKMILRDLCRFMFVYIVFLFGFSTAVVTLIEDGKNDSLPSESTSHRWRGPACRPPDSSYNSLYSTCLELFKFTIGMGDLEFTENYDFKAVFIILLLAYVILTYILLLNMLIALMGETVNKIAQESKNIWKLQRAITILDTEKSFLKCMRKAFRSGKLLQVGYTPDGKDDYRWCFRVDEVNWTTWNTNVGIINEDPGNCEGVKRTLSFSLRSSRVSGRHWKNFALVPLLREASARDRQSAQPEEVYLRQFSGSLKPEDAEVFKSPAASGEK

Tests used:
human VR1 [1] = target: T1, human VR1 (Homo sapiens, UniProt Q8NER1); test: Human VR1 functional assay (FLIPR intracellular Ca2+); type: cell-based; conditions: for h % I (1 μM): inhibition of capsaicin response; for IC50: read-out: h IC50, antagonism of capsaicin-induced Ca2+ increase
Description: The functional activity of the test compounds was determined by measuring changes in intracellular calcium concentration using a Ca^2+-sensitive fluorescent dye and FLIPR™ technology. Increases in Ca^2+ concentration were readily detected upon challenge with capsaicin. HEK293 Cells expressing human VR1 were grown on poly-D-lysine coated 384 well black-walled plates (BD 354663) and 1 day later loaded with Calcium 3 Dye for 35 min at 37 C, 5% CO2 and then for 25 min at room temperature, and subsequently tested for agonist-induced increases in intracellular Ca^2+ levels using FLIPR™ technology. Cells were challenged with test compounds (at varying concentrations, which are indicated in parentheses in the heading of the table below) and intracellular Ca^2+ was measured for 5 min prior to the addition of capsaicin to all wells to achieve a final concentration of eliciting an approximate 80% maximal response ([…]). EC50 or IC50 values were determined from dose-response studies. Curves were generated using the average of quadruplicate wells for each data point.

human VR1 [2] = target: T1, human VR1; test: Human VR1 [3H]RTX binding assay
Description: Compounds of the present invention were tested for their ability to inhibit the binding of tritiated resiniferatoxin ([^3H] RTX) to human VR1 receptors in a [^3H] […]
Approximately 120 μg protein/ml from membranes were incubated with indicated concentrations of [^3H]RTX in 0.5 ml of the HEPES buffer (pH 7.4) containing 0.25 mg/mL fatty acid-free bovine serum albumin at 37 C for 60 min. After cooling the reaction mixture to 4 C, 0.1 mg (x-acid glycoprotein was added to each sample, which was incubated at 4 C for 15 min and then centrifuged at 18500× g for 15 min. The tip of the microcentrifuge tube containing the pellet was cut off. Bound radioactivity was quantified by scintillation counting. Non-specific binding was assessed in the presence of 200 nM unlabeled resiniferatoxin.
Data were calculated according to the equation: % inhibtion=(total binding−binding)*100/(total binding−non specific binding).
Ki values were calculated based on an average of duplicate measurements using a GraphPad Prism program.

h % I (1 μM) (human VR1 [1]) [%] | IC50 (human VR1 [1]) [nM] | % Response Relative to EC80 of Capsaicin (12 μM) (human VR1 [1]; agonist response, 12 μM) [%] | EC50 (human VR1 [1]; read-out: h EC50, agonist-induced Ca2+ increase) [nM] | h Binding % I (1 μM) (human VR1 [2]; inhibition of [3H]RTX binding at 1 μM) [%] | Ki (human VR1 [2]; read-out: h Ki, [3H]RTX binding, HEK293 membranes) [nM] | Compound
98 | 306 |  |  |  |  | O=C(CCc1ccc(S(=O)(=O)C(F)(F)F)cc1)Nc1ccc(-n2cnc(Cl)c2Cl)c(C(F)(F)F)c1
97 | 325 |  |  |  |  | Cc1cc(NC(=O)CCc2ccc(S(=O)(=O)C(F)(F)F)cc2)cnc1-n1cnc(Cl)c1Cl
 |  | 125 | 6 | 60 | 356 | CC(=O)Nc1cccc(-c2ccc(NC(=O)CCc3ccc(C(C)(C)C)cc3)cn2)c1
